Series [1] in a line: Conjugate stability in human plasma (ELISA of intact conjugate). Conditions: in vitro incubation in human plasma. It is filed as in vitro ADME, humans. The method, then:
(§1) Thus, ex vivo stability analysis of this linker was performed in the plasma of mice, monkeys and humans. […] The level of the conjugate was measured over time using an ELISA that measures only intact conjugate and was standardized to conjugate levels when incubated in PBS. […] The stability of the conjugate was also evaluated in a solution of 10 mM GSH, mimicking the GSH levels in the cytoplasm of cells. As expected, and as designed, the disulfide bond conjugating the VHH to the carrier is unstable in the presence of GSH and practically all the conjugate was cleaved within 5 hours.
For orientation: In an ELISA, binding on a coated surface is turned into a signal by an enzyme label.

Series [2] can be described thus: Conjugate stability under cytoplasmic-like conditions (GSH solution), ELISA of intact conjugate. The format is in vitro ADME. Conditions: 10 mM GSH. The method, then: as §1
Therefore, the stability of the biotin-PEG-HSA conjugate was evaluated in cytoplasmic-like conditions, characterized by the presence of glutathione (10 mM).

A short description of series [3]: Conjugate stability in mice plasma (ELISA of intact conjugate). It is filed as in vitro ADME. Particulars: in vitro incubation in mice plasma. How it is done:
Thus, ex vivo stability analysis of this linker was performed in the plasma of mice, monkeys and humans. […] The level of the conjugate was measured over time using an ELISA that measures only intact conjugate and was standardized to conjugate levels when incubated in PBS. […] The stability of the conjugate was also evaluated in a solution of 10 mM GSH, mimicking the GSH levels in the cytoplasm of cells.

The nature of series [4]: In vivo PK study of 3rd generation linkers (hindered PEGs and peptide linkers), two side ELISA. Particulars: Balb-c mice, 60 nmol/Kg, plasma.
For series [5] the following is noted: mouse, in vivo, 60 nmol/kg.
Series [6] in a line: In vivo PK study of 2nd generation linker conjugates, two side ELISA (anti VHH/anti HSA). Conditions: Balb-c mice, 60 nmol/Kg, plasma.

Read-outs that look alike come from different tables or passages of the source.

With HSA-PEG4-di-methyl(dm)-S—S-VHH [S1], the “stability in PBS” value is reported as “stable in PBS”. Further, the “stability in human plasma” value in series [1] is “not decreased even after 96 h”. In addition, the “stability under cytoplasmic-like conditions” value in series [2] is recorded as “decreased rapidly with time”. Besides, the “stability in mice plasma” value in series [3] is on record as “some decrease in the conjugate concentration was observed”. For the same substance, in series [4], the AUC0-t turned out to be 963.1 µg·h/mL; the C0 was 124.4 µg/mL; the highest concentration (Cmax) (in general, the highest concentration seen after dosing) worked out at 118.2 µg/mL; the t1/2 is reported as 14.2 h.
In the case of VHH αE7-(G4S)3—C-HSA [S3C], in series [2] (24 hours), the “conjugate still detected after 24 hours” value is “no residual levels”.
For VHH αE7-G4S-G4S-G4L-C-HSA [S3A], the “stability in mice plasma” value in series [3] was “good stability in mice plasma”. For the same substance, in series [5], the AUC0-t came to 1098.4 µg·h/mL, the C0 was determined as 118.3 µg/mL, the CL turned out to be 4.525 mL/h/kg and the Cmax was 112.4 µg/mL. In addition, the t1/2 in series [5] is 13.5 h.
Take VHH αE7-PEG11-HSA [S4]: in series [6], the AUC0-inf was 1950.5 µg·h/mL, the AUC0-t came out at 1856.0 µg·h/mL, the C0 was found to be 179.9 µg/mL and the maximum concentration (Cmax) turned out to be 167.2 µg/mL. The substance further returned a t1/2 in series [6] of 28.1 h.

(Values after patent US12544451B2, “Intracellular delivery compositions” (BIOND BIOLOGICS LTD., priority 2021, dated 2026).)
